Assay outcomes from PubChem BioAssay.
UUG fidelity – modulators of start codon recognition fidelity in yeast; S. cerevisiae UUG-firefly luciferase reporter, luminescence/redox ratio; activity score, % at 18.7 µM; hit rate 0.13% among 350,000; AID 602363;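 active = replicate mean at a twofold rise or more, about +100% in these data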;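 note: firefly luciferase made from a UUG start codon reports start codon fidelity; reporter light over untreated wells divided by growth signal over untreated wells; some hits fall short of that in this replicate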
MC4R antag cAMP – antagonists of human melanocortin 4 receptor (MC4R); MC4R-expressing cells, MTII-stimulated cAMP, LANCE TR-FRET; inhibition, % at 6.5 µM; 360,000 tested, 0.48% active; AID 540295;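 active = inhibition above its plate's cutoff, the mean of tested wells on that plate plus 3 SD, cut at about 29% in these data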;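 also: 0% = Melanotan II alone and 100% = Melanotan II plus saturating MCL0020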
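system = U2OS cells with stable human MC4R expression | also added = Melanotan II challenge after compound preincubation | dosing = one concentration, 6.5 µM nominal | incubation = compound 30 min, challenge 1 h, detection 1 h | measured by = TR-FRET with Eu-cAMP and labeled anti-cAMP, 671 nm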
MC4R ag barr – human MC4R agonism via beta-arrestin | P32245 | U2OS MC4R beta-arrestin complementation, luminescence; percent of melanotan II response, DMSO zero | activation, % at 8.9 µM | 360,000 tested, 0.98% active;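 active = activation above a per-plate cutoff, the mean activation of sample wells on that plate plus 3 SD, cut at about 8% in these data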
HDAC3 inh – blocks human histone deacetylase 3 | O15379 | 320,000 tested, 0.15% active | inhibition, % at 8.3 µM | AID 2718 | recombinant HDAC3, fluorogenic peptide/trypsin coupled, fluorescence; in the data active = inhibition above about 26%, passing the limit was not always enough; inconclusive = no clear call, values can overlap the other calls
NALP1 yeast inh – NALP1 inhibition | 280,000 tested, 0.61% active | S. cerevisiae NALP1/ASC/caspase-1 growth, X-gal OD620, 72 h | inhibition, % at 10 µM; in the data active = inhibition mostly above about 24%, no sharp cut-off; inactive = mostly below about 32%
ALR inh – inhibitors of human sulfhydryl oxidase ALR; 290,000 tested, 3.8% active; inhibition, % (test concentration not listed); AID 485317; P55789; purified ALR, DTT oxidation, H2O2 HRP-luminol luminescence;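 active = mean and each replicate at 75% or more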;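 also: stock transfer was 7.5 nL into about 7.5 µL; 0% = neutral wells and 100% = wells with inactivated enzyme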
Starred values were filed as active, the others as inactive; ? = inconclusive; . = no result given. Hits are enriched below; roughly 4.2% of the tested compounds scored in any of these assays.

1) COc1ccc(CNC(=O)C[C@@H]2C=C[C@@H](NC(=O)Nc3ccc4c(c3)OCO4)[C@@H](CO)O2)cc1
2) S=c1nc(-c2ccco2)[nH][nH]1
3) S=c1nc(-c2ccc(Cl)cc2)[nH][nH]1
4) COc1ccc2c(c1)c1ncn(CCCN3CCOCC3)c(=O)c1n2C
5) COc1ccc2c(c1)c1ncn(CCc3ccccc3)c(=O)c1n2C
6) O=C(Cc1coc2cc(O)ccc12)NNC(=O)c1cccs1

Assay by compound	1	2	3	4	5	6
HDAC3 inh	.	5	11	-51	-18	-4
ALR inh	.	99*	.	-5	91*	99*
MC4R ag barr	.	-1	-1	-1	-2	-1
NALP1 yeast inh	.	-6	.	14	2	.
UUG fidelity	28	-7	-22	3	-1	3
MC4R antag cAMP	.	6	8	7	11	11

7) C[C@@H]1CCCCO[C@H](CN(C)Cc2ccc3c(c2)OCO3)[C@@H](C)CN([C@H](C)CO)C(=O)c2cc(NS(C)(=O)=O)ccc2O1
8) CC1(C)Cc2c(c(-c3ccccc3)nc3[nH][nH]c(=O)c23)CO1
9) CC(C)NC(=O)N(C)C[C@H]1Oc2ccc(NC(=O)NC3CCCCC3)cc2CC(=O)N([C@H](C)CO)C[C@H]1C
10) CCOc1ccc(C(=O)c2ccc(OCC)c(N)c2)cc1N
11) CN(C)c1ccc(C(=O)c2ccc(N(C)C)c(N)c2)cc1N
12) C[C@@H]1CN([C@H](C)CO)S(=O)(=O)c2ccc(C#Cc3cccnc3)cc2O[C@@H]1CN(C)C

Assay by compound	7	8	9	10	11	12
HDAC3 inh	.	-2	.	10	4	.
ALR inh	.	99*	.	-1	95*	.
MC4R ag barr	.	-1	.	-1	0	.
NALP1 yeast inh	.	12	.	13	15	.
UUG fidelity	-8	-31	0	-4	-51	0
MC4R antag cAMP	.	3	.	4	1	.

13) COC(=O)c1ccc(-n2c(C)cc(C(=O)CSc3ccc(NC(C)=O)cc3)c2C)cc1
14) Cc1cc(C(=O)COC(=O)c2ccc(O)cc2)c(C)n1-c1ccccc1F
15) CC(=O)Nc1ccc(SCC(=O)c2cc(C)n(-c3ccccc3F)c2C)cc1
16) COC(=O)c1ccc(-n2c(C)cc(C(=O)CSc3cccc[n+]3[O-])c2C)cc1
17) C=CCN1CC(O)=C(c2nc3ccccc3[nH]2)C1=N
18) CCCCN1CC(O)=C(c2nc3ccccc3[nH]2)C1=N

Assay by compound	13	14	15	16	17	18
HDAC3 inh	5	5	3	3	2	-3
ALR inh	91*	.	98*	1	83*	4
MC4R ag barr	-1	-2	0	0	-2	-1
NALP1 yeast inh	32	5	27	4	25	7
UUG fidelity	.	.	7	.	-8	-21
MC4R antag cAMP	18	0	8	-5	15	-6

Reprinted, nos. 14–17
14) Cc1cc(C(=O)COC(=O)c2ccc(O)cc2)c(C)n1-c1ccccc1F
15) CC(=O)Nc1ccc(SCC(=O)c2cc(C)n(-c3ccccc3F)c2C)cc1
16) COC(=O)c1ccc(-n2c(C)cc(C(=O)CSc3cccc[n+]3[O-])c2C)cc1
17) C=CCN1CC(O)=C(c2nc3ccccc3[nH]2)C1=N

Assay by compound	14	15	16	17
HDAC3 inh	5	3	3	2
ALR inh	.	98*	1	83*
MC4R ag barr	-2	0	0	-2
NALP1 yeast inh	5	27	4	25
UUG fidelity	.	7	.	-8
MC4R antag cAMP	0	8	-5	15

(listing goes on)
19) CC=Cc1ccc2n(c1=O)C[C@H]1[C@H](CO)[C@@H](C(=O)NCCC)N(CC3CCOCC3)[C@@H]21 (mixture of isomers)
20) COc1ccc(OCCCN(C)Cc2ccccc2)cc1
21) COc1ccc(CC(=O)N(Cc2ccccc2)C(C)C)cc1
22) COc1ccc(CCC(C)N(C)Cc2ccccc2)cc1 (stereo unspecified)
23) COc1ccccc1NC(=O)N[C@@H]1CC[C@H](CCn2cc(-c3ccccc3)nn2)O[C@H]1CO
24) O=C(Nc1nnc(S(=O)(=O)N2CCOCC2)s1)c1ccccc1

Assay by compound	19	20	21	22	23	24
HDAC3 inh	.	-2	5	-2	.	.
ALR inh	.	-7	.	-12	.	99*
MC4R ag barr	.	2	-2	-2	.	-1
NALP1 yeast inh	.	38*	2	30*	.	-8
UUG fidelity	6	-25	-22	-10	3	5
MC4R antag cAMP	.	13	2	1	.	11

25) COc1ccc(CN(C)C[C@H]2OCCCC[C@@H](C)Oc3ccc(N(C)C)cc3C(=O)N([C@@H](C)CO)C[C@@H]2C)cc1
26) O=C(NNc1ccc(O)cc1)c1ccc(Br)cc1
27) O=C(NNc1ccccc1)c1ccccc1
28) Cc1ccc(S(=O)(=O)Nc2c(O)ccc3ccccc23)cc1
29) O=S(=O)(Nc1c(O)ccc2ccccc12)c1cccc2ccccc12
30) O=C(O)CCN1C(=O)/C(=C\c2ccc(-c3nc4ccccc4s3)o2)SC1=S

Assay by compound	25	26	27	28	29	30
HDAC3 inh	.	2	.	3	4	?
ALR inh	.	99*	.	88*	87*	98*
MC4R ag barr	.	-2	0	-1	-1	-2
NALP1 yeast inh	.	23	.	.	.	-4
UUG fidelity	-6	6	4	-14	-12	-5
MC4R antag cAMP	.	4	-1	0	4	15

31) O=C(O)CCCN1C(=O)/C(=C\c2ccco2)SC1=S
32) CC(C)NC(=O)N1C[C@@H]2[C@H](c3ccccc31)[C@@H](CO)N2C(=O)Nc1ccccc1
33) O=C(NCCSc1c[nH]c2ccccc12)c1c(F)cccc1F
34) O=C(NCCSc1c[nH]c2ccccc12)C1CC1
35) COc1cc(OC)cc(C(=O)NCCSc2c[nH]c3ccccc23)c1
36) O=C(NCCSc1c[nH]c2ccccc12)c1ccco1

Assay by compound	31	32	33	34	35	36
HDAC3 inh	.	.	0	0	5	-2
ALR inh	.	.	.	98*	91*	73
MC4R ag barr	-5	.	0	-1	2	-2
NALP1 yeast inh	3	.	24	6	.	15
UUG fidelity	.	8	19	-7	15	-23
MC4R antag cAMP	4	.	-2	-6	-8	6

37) O=C(NNc1nc2ccc(F)cc2s1)c1cccc(F)c1
38) CCCNC(=O)C[C@@H]1C[C@@H]2c3cc(NS(C)(=O)=O)ccc3O[C@@H]2[C@@H](CO)O1
39) CN1C=CC=C/C1=C(\C#N)c1nc2ccccc2[nH]1
40) CSc1nc2c(c(=O)n1-c1ccc(C)cc1)SCC2
41) C[C@@H]1CN([C@@H](C)CO)C(=O)c2cccc(NS(=O)(=O)c3ccc(Cl)cc3)c2O[C@H]1CN(C)CC1CC1
42) COC(=O)c1cc2c(n1S(=O)(=O)c1ccc(C)cc1)C(=O)C(=O)c1[nH]cc(C(=O)OCc3ccccc3)c1-2

Assay by compound	37	38	39	40	41	42
HDAC3 inh	1	.	3	7	.	.
ALR inh	98*	.	99*	-4	.	.
MC4R ag barr	-1	.	-1	-2	.	37*
NALP1 yeast inh	5	.	-7	28*	.	.
UUG fidelity	.	1	-12	-20	7	.
MC4R antag cAMP	6	.	-7	-3	.	-27

43) CCOC(=O)C1CCN(Cc2cnc(Oc3ccc(N)cc3)s2)CC1
44) CS(=O)(=O)Nc1ccc2c(c1)[C@H]1C[C@H](CC(=O)NCC(F)(F)F)O[C@H](CO)[C@H]1O2
45) NC(=O)c1cc(Br)cc(C2CCCCC2)c1O
46) C[C@@H]1CN([C@@H](C)CO)C(=O)Cc2cc(NC(=O)Nc3ccc4c(c3)OCO4)ccc2O[C@H]1CN(C)Cc1ccc(C(F)(F)F)cc1
47) CC(CCC(C)C(C)(C)C)[C@@H]1CC[C@H]2C3C[C@H](OS(O)(=S)=S)[C@H]4C[C@H](OS(O)(=S)=S)[C@@H](OS(O)(=S)=S)C[C@]4(C)[C@H]3CC[C@]12C (stereo partly specified) (tested in a mixture with another compound)
48) Cc1nc2ccc(NC(=S)NCc3ccccc3)cc2nc1C
49) COc1ccc(N(C)C(=S)Nc2ccc3nc(C)c(C)nc3c2)cc1
50) COc1ccc(-c2oc3cc(O)c(OC)c(O)c3c(=O)c2OC)cc1

Assay by compound	43	44	45	46	47	48	49	50
HDAC3 inh	3	.	1	.	5	2	4	5
ALR inh	98*	.	92*	.	98*	-40	98*	23
MC4R ag barr	0	.	0	.	-1	-5	-3	-1
NALP1 yeast inh	.	.	10	.	.	-19	41	-16
UUG fidelity	-4	8	-21	0	-30	-26	-15	9
MC4R antag cAMP	14	.	-4	.	25	9	-5	-12
